# scFv variants of Ab-95 (light chain) against a SARS-CoV-2 spike peptide

Target: peptide PDVDLGDISGINAS, taken from heptad repeat 2 (HR2) of SARS-CoV-2 spike.

The variants keep the heavy chain, the linker and the frameworks of Ab-95 (scFv order VH, three GGGGS repeats, VL).
VH: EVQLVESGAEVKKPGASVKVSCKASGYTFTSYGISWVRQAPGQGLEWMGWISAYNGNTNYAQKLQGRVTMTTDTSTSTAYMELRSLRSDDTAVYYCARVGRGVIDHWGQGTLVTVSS
VL: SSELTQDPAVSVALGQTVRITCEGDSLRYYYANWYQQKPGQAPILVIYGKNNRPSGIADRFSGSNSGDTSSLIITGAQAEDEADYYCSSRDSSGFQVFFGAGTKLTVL

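The parent was found by panning a naive human phage display library on the peptide. Library AAYL52 holds single substitutions and randomly drawn double and triple substitutions in the CDRs. In AlphaSeq, yeast of one mating type display the scFv and yeast of the other type display the target. Mating (16 h, 30 °C) was followed by selection of diploids and sequencing of their barcodes. The ratio of observed to expected reads was calibrated, replicate by replicate, on BCL2-family standards whose Kd was known from biolayer interferometry. Each pool was mated in three replicate cultures.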

The parent's light chain CDRs are EGDSLRYYYAN, GKNNRPS, SSRDSSGFQVF; each variant's own CDRs replace them letter for letter.
Affinities are written as log10 Kd with Kd in nM; a lower number is a better binder.
The mean shown is taken over the replicates in which the pair was detected.
An entry "nd" has no value in the source: the pair was not observed among the diploids in any replicate. This suggests poor binding but is not conclusive.
Three control strains display no target. For library AAYL52, 28% of the pairings with them gave a signal, with a median of 3.91 and one signal in twenty below 2.90, so weak values seen in few replicates may be background.

| mean, log10 nM | detected | CDR-L1 | CDR-L2 | CDR-L3 |
|---|---|---|---|---|
| 4.66 | 2/3 | EGDSLRMYYNN | GKNNRPS | SCRDSSGFQVF |
| 3.11 | 3/3 | EGDSLRYYYAN | GDNNPPS | SSRDASGFQVF |
| nd | 0/3 | EGDSLCYYYAN | GKNNRPE | SSRDSSGFQVS |
| 3.34 | 3/3 | EGDSLRYYYAN | GKNKRPS | SSRDSSGFWVF |
| 2.85 | 3/3 | EGDDLRYYYAN | GKNNRPS | SSRCSKGFQVF |
| 2.80 | 3/3 | EGDSLAYYYAN | GKNNRPS | SSRDSSDFQVF |
| 3.31 | 2/3 | EGDSLRAYPAN | GKNNRPS | SSRDSSKFQVF |
| 3.19 | 3/3 | EGDSVRYYFAN | GKNNRPS | SSRDSSGFQVP |
| 2.41 | 3/3 | EGDSLRYYYAN | GKNFRPS | SSQDSSGFEVF |
| 3.40 | 1/3 | EGDSLAYYYPN | GKINRPS | SSRDSSGFQVF |
| 3.31 | 3/3 | EGDSLRYYYAN | GKNNNPS | SSRDSSGSQVF |
| 1.09 | 3/3 | EGDSLRGYYAN | GKNIRPS | SSRSSSGFQVF |
| 3.84 | 3/3 | EGDGLRYYYAN | GKNNRPS | FSTDSSGFQVF |
| nd | 0/3 | EGDSLRYYYAN | GKYNRPS | WSRDLSGFQVF |
| 5.07 | 2/3 | EGDILRYYYAN | GKNNRPS | SSRDSSGIQIF |
| 3.64 | 2/3 | EDDSLRYYYAN | GTNNRPS | SSRDSSQFQVF |
| 1.33 | 3/3 | EGDSLCYSYAN | GKNNRPS | SSRDSSGFGVF |
| 3.36 | 2/3 | EGDSLAYYYAN | GKNFRPS | SSTDSSGFQVF |
| 3.71 | 2/3 | EGSSLRYYVAN | GKNNRIS | SSRDSSGFQVF |
| 4.50 | 2/3 | ECDSLRYYYAN | GKPERPS | SSRDSSGFQVF |
| 5.07 | 1/3 | EGDSLLYYYAN | PKNNRPS | SSRDSEGFQVF |
| nd | 0/3 | PGDSLRYYYAN | GKNNRPS | SSFDSTGFQVF |
| 3.66 | 3/3 | EGDSMYYYYAN | GKNNRPS | FSRDSSGFQVF |
| 2.58 | 3/3 | EGDSLRYYYAN | GKNNRAS | SSRDSPGFLVF |
| 2.98 | 3/3 | EGTSLRYYYAN | GKNSRPS | SSRDSSGFQVF |
| 3.06 | 1/3 | EGDSLRYYYAA | GKNNRPS | SNRDFSGFQVF |
| 2.94 | 3/3 | EDDSLRYYYAN | GKNNRPS | SSRDPSGFQVF |
| 3.34 | 1/3 | EGDSLRYYATN | GKNNRPS | SSRESSGFQVF |
| 4.07 | 1/3 | HGWSLRYYYAN | HKNNRPS | SSRDSSGFQVF |
| 2.90 | 3/3 | IGDSLRYWYAN | GKNNRPS | SSRDKSGFQVF |
| 3.57 | 3/3 | LGSSLLYYYAN | GKNNRPS | SSRDSSGFQVF |
| nd | 0/3 | EIDSLRYYYAN | GKTNRPS | SSRDSSGFQIF |
| 4.20 | 2/3 | EGDTLRYYYAN | GKNNRTS | SSRISSGFQVF |
| 3.06 | 3/3 | EFDYLRYYYAN | GKNNRPS | SSRDASGFQVF |
| 4.11 | 3/3 | EPDSLRYYYAN | GKNNRPS | SYRDSSGFLVF |
| 4.60 | 2/3 | TGDSLRYYYGN | YKNNRPS | SSRDSSGFQVF |
| 3.44 | 1/3 | VGDSSRYYYWN | GKNNRPS | SSRDSSGFQVF |
| nd | 0/3 | EGDSKRYYYAN | GKNNRPS | QSRDSSGRQVF |
| 3.68 | 1/3 | EGDSHRYYYAN | GKNNRPS | SSYDCSGFQVF |
| 2.60 | 3/3 | EGDSLRYYYAN | GKNNRPP | SSRDRQGFQVF |
| 3.79 | 3/3 | EGDILRYYYAN | GKNPRDS | SSRDSSGFQVF |
| 3.02 | 3/3 | EGDMLRYYHAN | GKNNRPS | SSRDSSGFQVF |
| 3.36 | 3/3 | EGDSLRYYYAN | GKNNRPS | SSFDSSGHQVT |
| 3.65 | 3/3 | LGDSLRYYYAN | GKLNRPS | SSRDLSGFQVF |
| nd | 0/3 | EGDILRYYYAN | GKNNRPS | SLRDSSGFQVT |
| 3.27 | 3/3 | EGMSSRYYYAN | GKNERPS | SSRDSSGFQVF |
| 4.52 | 3/3 | EGDSLRYYYAN | GKNCRPY | SSRDSSGFLVF |
| 3.76 | 1/3 | EGDSLRYYYAN | GKNNRPS | SVRDSHGQQVF |
| 3.18 | 2/3 | EGDSLTYYYAN | GKNNRPS | PSRDSSAFQVF |
| 4.13 | 1/3 | EGDSLRYYYAN | GKNNRQS | SSRKDSGFQVF |
| 2.36 | 3/3 | EGDSLRYYYAN | GKNNRPS | SDRDSSGVQVF |
| 2.57 | 3/3 | KGDSLRYYYAN | GKNNRPS | SSRDSSDFQYF |
| 5.14 | 2/3 | EGDSLCYYYAN | LKQNRPS | SSRDSSGFQVF |
| 3.55 | 3/3 | EGDSLRYYYAW | GKINRPS | SSRDSSGFQVF |
| 3.62 | 1/3 | EGDSLRYYFAN | GKNNCPS | SSRDSSGFTVF |
| nd | 0/3 | WGDSQRYYYAN | GKNNRPS | SSRDSIGFQVF |
| 2.08 | 3/3 | EGDSLRYYYAN | GANNRPM | SSRDSSGFQVF |
| nd | 0/3 | EGDILRYYYAN | GKNNYPS | SSRDSSGFQHF |
| 2.96 | 2/3 | EGDSLRYYYAN | GKNRRPS | ASRDSDGFQVF |
| 3.61 | 1/3 | EGDSERYYYNN | GKNNRPS | SSYDSSGFQVF |
| nd | 0/3 | EGDSLLYYYEN | GKNNRPQ | SSRDSSGFQVF |
| 2.42 | 3/3 | EGDSLRYYYAN | GKNGRPS | YSRDSSGFWVF |
| nd | 0/3 | EGDSWRYYYAN | GKNNMPS | SSRDSLGFQVF |
| nd | 0/3 | EGDSLRYNYAY | GKNNRPS | SSEDSSGFQVF |
| 3.79 | 2/3 | EGDSWRYYYAN | GKNNSPS | SSRDSSGFTVF |

A selection of 4 entries from above:

| CDR-L1 | CDR-L2 | CDR-L3 | mean, log10 nM | detected |
|---|---|---|---|---|
| EGDSLRYYYAN | GKNNRPS | SVRDSHGQQVF | 3.76 | 1/3 |
| EGDSLRYYYAW | GKINRPS | SSRDSSGFQVF | 3.55 | 3/3 |
| VGDSSRYYYWN | GKNNRPS | SSRDSSGFQVF | 3.44 | 1/3 |
| KGDSLRYYYAN | GKNNRPS | SSRDSSDFQYF | 2.57 | 3/3 |

The measurements come from Engelhart et al. 2022 (doi:10.1038/s41597-022-01779-4) through the FLAb antibody collection.